scFv variants of Ab-14 (light chain) against a SARS-CoV-2 spike peptide

Target peptide (SARS-CoV-2 spike, HR2 region): PDVDLGDISGINAS

Ab-14 is the parent antibody, in scFv form: VH, then three GGGGS repeats, then VL. The heavy chain is unchanged in all variants.
VH: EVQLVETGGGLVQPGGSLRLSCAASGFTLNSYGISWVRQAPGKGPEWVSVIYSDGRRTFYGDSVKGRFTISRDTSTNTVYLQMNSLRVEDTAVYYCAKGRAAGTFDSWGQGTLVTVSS
VL: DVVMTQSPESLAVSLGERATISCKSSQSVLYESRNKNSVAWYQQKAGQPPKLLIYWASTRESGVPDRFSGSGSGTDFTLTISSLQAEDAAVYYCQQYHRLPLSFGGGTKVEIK

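Designed CDR sequences, proposed from the first random library and measured here. Several design methods are mixed in this list. Affinity was read by AlphaSeq, a pooled yeast mating assay with surface-displayed partners. Binding brings cells together so that they mate, and sequencing counts the barcode pairs among the diploids. Read counts were normalised to the haploid input and turned into Kd by a linear fit to BCL2-family pairs of known affinity, for each replicate. There are six technical replicates.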

Variants are written as CDR1, CDR2 and CDR3 of the light chain (limits as in the source). Parent: KSSQSVLYESRNKNSVA, WASTRES, QQYHRLPLS. Variants here have more than six changes. The Kd shown is the geometric mean over detected replicates; a lower Kd is a better binder. Where no diploid with the target was found in any replicate, the entry reads "nd": below detection, most likely a poor binder, though not proof of it. Three control strains display no target. For all light chain designs, 4% of the pairings with them gave a signal, with a median of 430 nM and one signal in twenty below 38 nM, so weak values seen in few replicates may be background. A sequence measured in both rounds can read differently, since the two assays cover different ranges. In the paper, a design with two or fewer of six values counts as a poor binder.

The variant KLAMILSMEFGTYHGVA | DAEHKAD | QQYNRLPLS gave 16 nM (5 of 6 replicates).
The variant HIQEVDHQVENKYGNVA | DASEYAA | QQYFQLPIS gave 8.9 nM (6 of 6 replicates).
The variant MISDLTMYGSRNVNSVA | DLSTRGQ | QQYHRLPLS gave 700 pM (6 of 6 replicates).
The variant ALSQSMDMTSRNMNSVA | DLTTREN | QQYHRLPLS gave 2.1 nM (6 of 6 replicates).
The variant TLVQSVMGGSRTKNSVA | NAETRYD | QHYHRLPLS gave 180 nM (5 of 6 replicates).
The variant KMSQSWLGEDWNKNSVA | QASQRES | QQYHRLPLS gave 1.6 nM (6 of 6 replicates).
The variant KLSYSVEYQERNKNSVA | QASQRES | QQYHRLPLS gave 1.1 nM (6 of 6 replicates).
The variant KIGHTLNTLYEKANNVA | DLVERED | QQYHRLPLS gave 6.1 nM (6 of 6 replicates).
The variant WLNIEDQGDDRGMNNIA | GGDTKMA | QQYHRLPLS gave 9.9 nM (6 of 6 replicates).
The variant AFSESANYGQRDSNAIA | GADVVAK | QQYWRLPLT gave 590 pM (6 of 6 replicates).
The variant MIQQLYNMGTFAINSVA | QASLRNE | QQYDRLPLM gave 47 nM (6 of 6 replicates).
The variant KLPLATMQASVSKNNVA | ELSTRGS | QQYHRLPLS gave 4.6 nM (6 of 6 replicates).
The variant HITDLMYNNNEGMENIA | DKNISVM | QQYFRLPLI gave 6.6 nM (6 of 6 replicates).
The variant KLHQSWLYESRQINSVA | NASQRCS | QQYHRLPLS gave 1.8 nM (6 of 6 replicates).
The variant KLFGGIPEQERDDYSIA | KGTLREV | QQYQRLPLS gave 1.7 nM (6 of 6 replicates).
The variant KMSQSEDYEERNCNAVA | NASQREE | QQYHRLPLS gave 2.4 nM (6 of 6 replicates).
The variant KLSMSSLMESRNKNSVA | ENSTRES | QHYHRLPLS gave nd (0 of 6 replicates).
The variant KLQVSYLFESLEKNSIA | ENSTREK | QHYHRLPLS gave 68 nM (5 of 6 replicates).
The variant HLGLVTMLEEAVRNSVA | NNSTREQ | QQYDRLPLS gave 17 nM (1 of 6 replicates).
The variant KSSHSPQYEWRAKNSVA | AASTREA | QQYHRLPLS gave 5.2 nM (6 of 6 replicates).
The variant KLSISHQVESINKSNVA | EMVTREN | QQYDRLPLS gave 120 nM (6 of 6 replicates).
The variant KIGATLNTLYEKQNNVA | DLVEREN | QQYHRLPLS gave 2.0 nM (6 of 6 replicates).
The variant MVTLQLRPGHEHQNPIA | EASHRAA | QQYAHLPLG gave 21 nM (6 of 6 replicates).
The variant KLDPSDLMESRNWNSVA | QASTREI | QQYHRLPLS gave 1.4 nM (6 of 6 replicates).
The variant KLGQSTAMTSRMKNNVA | DLNERER | QQYHRLPLS gave 1.4 nM (6 of 6 replicates).
The variant KISQMVKVGATHSNSIA | EEQTRAK | QQYHRLPLS gave 5.5 nM (6 of 6 replicates).
The variant KLSCSWLMESRNSNSVA | HASKRES | QDYHRLPLS gave 4.5 nM (6 of 6 replicates).
The variant HMSMLTMMGMKQRNSVA | QMTTREN | QQYDRLPLM gave 7.9 nM (6 of 6 replicates).
The variant NMNVGANFGKEQEQAIA | DVDDRES | QQYQRLPLT gave 1.7 nM (6 of 6 replicates).
The variant HISYMDGHDGGNIHNVA | DTGVTSR | QQYSRLPLI gave 2.5 nM (6 of 6 replicates).
The variant TIAQAMDHLQRNRNNVA | DTNCRED | QDYNRLPLS gave 990 pM (6 of 6 replicates).
The variant MVQQLYNMGQFAINSVA | QASQRNA | QQYDRLPLI gave 98 nM (2 of 6 replicates).
The variant NISESMYFQSRNKSNIA | EMSTRER | QHYHRLPLS gave 150 nM (6 of 6 replicates).
The variant TISQMTSLFSQSINNVA | EVSMREP | QQYDRLPLI gave 8.6 nM (6 of 6 replicates).
The variant TISQLTSLFSQSINNVA | EVSMREE | QQYDRLPLA gave 24 nM (6 of 6 replicates).
The variant TLTQSVLMGSHNKNSVA | DLSTRGS | QQYHRLPLS gave 500 pM (6 of 6 replicates).
The variant TISMLMNHMTRNTNNVA | NMDMREV | QQYDRLPLS gave 3.1 nM (6 of 6 replicates).
The variant RLYNQGTDQIQHANSIA | DRDEVDS | QQYAHLPLS gave 9.0 nM (6 of 6 replicates).
The variant RLLDWAYNLTAKERNIA | DMDIRGA | QQYSHLPLA gave 9.9 nM (6 of 6 replicates).
The variant KLLQEVQGRSQHRNSVA | HNSTRED | QQYDRLPLI gave 530 nM (3 of 6 replicates).
The variant TLMQPQKELGAAKDNIA | DGSIRLG | QQYHRLPLV gave 14 nM (6 of 6 replicates).

The 6 strongest on average among those seen in every replicate, once more:

With TLTQSVLMGSHNKNSVA | DLSTRGS | QQYHRLPLS the result was 500 pM (6 of 6 replicates).
With AFSESANYGQRDSNAIA | GADVVAK | QQYWRLPLT the result was 590 pM (6 of 6 replicates).
With MISDLTMYGSRNVNSVA | DLSTRGQ | QQYHRLPLS the result was 700 pM (6 of 6 replicates).
With TIAQAMDHLQRNRNNVA | DTNCRED | QDYNRLPLS the result was 990 pM (6 of 6 replicates).
With KLSYSVEYQERNKNSVA | QASQRES | QQYHRLPLS the result was 1.1 nM (6 of 6 replicates).
With KLGQSTAMTSRMKNNVA | DLNERER | QQYHRLPLS the result was 1.4 nM (6 of 6 replicates).

The measurements come from Li et al. 2023 (doi:10.1038/s41467-023-39022-2) through the FLAb antibody collection.